In patent US20100311674A1, “PHARMACEUTICAL COMPOSITIONS WITH A MECHANISM OF MULTI-TARGET RECEPTOR RETROACTION FOR TREATING DEPRESSION” (Yu-Fen Chi, priority 2007, published 2010) one finds 5-HT data, which are given here for one compound.

The subject of this test is NE and 5-HT contents in the rat cerebral cortex. As to the kind of experiment: HPLC-electrochemical test of NE and 5-HT contents in the rat cerebral cortex, unpredictable long-term stimulus model (Experiment 8). Type of test: in vivo. Particulars: 2 mg/kg/d into the stomach, 24 days. The text has this: Unpredictable long-term stimulus model: Health Wistar male rats, secondary, 240˜270 g of body weight, are purchased from Beijing Vital River Experimental Animal Technology Ltd. Co. (The quality certificate number: SOCK (JING) 2002-2003). 8.2 Reagents and pharmaceuticals: The pharmaceutical of Embodiment 4 is provided by Beijing Wonner Biotech Ltd. Co. (Lot: 060313), and Paroxetine is the product of Zhong Mei Tianjin Smith Kline pharmaceuticals Co. Ltd. (Lot: 04050011). The above pharmaceuticals are prepared with 0.5% of sodium carboxymethylcellulose (CMC-Na) for feeding into the stomach. […] 8.5.6 HPLC-electrochemical test: The amounts of norepinephrine and 5-hydrotryptamine in the rat cerebral cortex are measured. 8.6 Statistic calculation: The experimental data are represented as […], and the experimental result is calculated as ANOVA by SPSS 11.5 statistic software.

On to `Fc1ccc([C@@H]2CCNC[C@H]2COc2ccc3c(c2)OCO3)cc1` [Paroxetine], for which the 5-HT was 227.0637 ± 46.54 nmol/L brain tissue extract.
